In one experiment the target is mu opioid receptor (Rattus norvegicus, UniProt P33535). As to the kind of experiment: Rat Brain mu Opioid Receptor Binding Assay. The following applies: read-out: μ-opioid binding (Ki), rat forebrain membranes, ~0.8 nM [3H]DAMGO, 25° C., 2.5 h. As for the experimental part:
(§1) Male, Wistar rats (150–250 g, VAF, Charles River, Kingston, N.Y.) are killed by cervical dislocation, and their brains removed and placed immediately in ice cold Tris HCl buffer (50 mM, pH 7.4). The forebrains are separated from the remainder of the brain by a coronal transection, beginning dorsally at the colliculi and passing ventrally through the midbrain-pontine junction. After dissection, the forebrains are homogenized in Tris buffer in a Teflon®-glass homogenizer. The homogenize is diluted to a concentration of 1 g of forebrain tissue per 80 mL Tris and centrifuged at 39,000×g for 10 min. The pellet is resuspended in the same volume of Tris buffer containing 5 mM MgCl2 with several brief pulses from a Polytron homogenizer. This particulate preparation is used for the mu-opioid binding assays. Following incubation with the mu selective peptide ligand ˜0.8 nM [^3H]DAMGO at 25° C. for 2.5 h in a 96-well plate with total 1 ml, the plate contents are filtered through Wallac filtermat B sheets on a Tomtec 96-well harvester. The filters are rinsed three times with 2 mL of 10 mM HEPES (pH7.4), and dried in a microwave oven 1:45 min twice. To each sample area 2×40 μl of Betaplate Scint scintillation fluid (LKB) is added and analyzed on a LKB (Wallac) 1205 BetaPlate liquid scintillation counter.
(§2) The data are used to calculate either the % inhibition compared to control binding (when only a single concentration of test compound is evaluated) or a Ki value (when a range of concentrations is tested). % inhibition is calculated as: [(total dpm-test compound dpm dpm)/(total dpm-nonspecific dpm)]*100. Kd and Ki values were calculated using GraphPad PRISM data analysis program.

Sequences of proteins named here, by UniProt entry; tags and fusion partners are left off.
UniProt P33535, whole entry: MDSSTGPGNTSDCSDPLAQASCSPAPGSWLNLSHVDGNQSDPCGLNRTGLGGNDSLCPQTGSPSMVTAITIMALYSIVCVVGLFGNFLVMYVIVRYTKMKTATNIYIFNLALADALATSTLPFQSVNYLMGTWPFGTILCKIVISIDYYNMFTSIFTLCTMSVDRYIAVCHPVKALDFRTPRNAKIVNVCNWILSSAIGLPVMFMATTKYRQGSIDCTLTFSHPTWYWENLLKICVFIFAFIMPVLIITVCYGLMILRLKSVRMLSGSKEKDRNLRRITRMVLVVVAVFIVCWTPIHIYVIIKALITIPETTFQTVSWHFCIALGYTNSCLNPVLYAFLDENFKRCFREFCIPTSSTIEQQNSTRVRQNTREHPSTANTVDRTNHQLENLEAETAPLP
UniProt P33533, whole entry: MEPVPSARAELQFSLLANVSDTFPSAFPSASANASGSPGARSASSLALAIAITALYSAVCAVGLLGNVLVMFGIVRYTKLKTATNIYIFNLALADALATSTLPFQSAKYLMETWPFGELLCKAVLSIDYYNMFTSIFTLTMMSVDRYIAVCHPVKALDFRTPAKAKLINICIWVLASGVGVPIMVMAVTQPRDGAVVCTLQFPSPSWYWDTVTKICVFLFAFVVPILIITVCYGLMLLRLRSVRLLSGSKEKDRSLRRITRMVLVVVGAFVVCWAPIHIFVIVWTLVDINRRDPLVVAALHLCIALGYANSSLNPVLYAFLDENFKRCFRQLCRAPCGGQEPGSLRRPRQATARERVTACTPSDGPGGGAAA

For a further experiment, the target named is delta opioid receptor (Rattus norvegicus, UniProt P33533). The experiment can be described thus: Rat Brain Delta Opioid Receptor Binding Assay. Particulars: read-out: δ-opioid binding (Ki), rat forebrain membranes, ~4 nM [3H]DPDPE, 25° C., 2.5 h. As for the experimental part:
as §1, with “delta opioid” for “mu-opioid”, “delta” for “mu”, “˜4” for “˜0.8”, “[^3H]DPDPE” for “[^3H]DAMGO”, “total volume of” for “total”
as §2

Read-outs that look alike come from different tables or passages of the source.

Usually Ki stands for a dissociation constant, usually derived from enzyme kinetics or from competition with a known ligand. As to `Cc1cc(OC(=O)C(C)(C)C)cc(C)c1C[C@H](N)C(=O)N1CCCC[C@H]1c1nc(-c2ccccc2)c[nH]1`, the Ki came out at 0.17 nM at mu opioid receptor and 11.9 nM at delta opioid receptor.
Consider `CC(=O)Oc1cc(C)c(C[C@H](N)C(=O)N2CCCCC2c2ncc(-c3ccccc3)[nH]2)c(C)c1` (stereo partly drawn), for which the Ki on mu opioid receptor (tested form: TFA) came to 0.16 nM; at delta opioid receptor (tested form: TFA), 6.7 nM.
For the compound `Cc1[nH]c([C@@H]2Cc3ccccc3CN2C(=O)[C@H](Cc2ccc(O)cc2)N(C)C)nc1-c1ccccc1`, the inhibition constant Ki on mu opioid receptor turned out to be 5320 nM; at delta opioid receptor, 60.9 nM.
Take `CCNC(=O)c1ccc(C[C@H](N)C(=O)N2Cc3ccccc3C[C@H]2c2nc(-c3ccccc3)c[nH]2)cc1`: the results for the Ki on mu opioid receptor and at delta opioid receptor were 6.5 nM and 1.7 nM, respectively.
For the compound `Cc1[nH]c([C@@H]2Cc3ccccc3CN2C(=O)[C@@H](N)Cc2ccncc2)nc1-c1ccccc1`, the Ki at mu opioid receptor was determined as 11400 nM; on delta opioid receptor it was 208 nM.
On to `NC(=O)C(Cc1ccccc1)NC(=O)c1[nH]c([C@@H]2Cc3ccccc3CN2C(=O)[C@@H](N)Cc2ccc(O)cc2)nc1-c1ccccc1` (stereo partly drawn), for which the figures for the Ki on mu opioid receptor and at delta opioid receptor were 922 nM and 6 nM, respectively.

The values above are taken from patent publication US7041681B2, “Compounds as opioid receptor modulators” (Janssen Pharmaceutica N.V., priority 2002, dated 2006).
